Test results reported in US8821943B2, “Methods and compositions for targeted delivery of therapeutic agents” (Board of Regents of the University of Nebraska, priority 2006, dated 2014).

Test system: excised bovine nasal tissue (MTA, MTP, ITP regions)
Assay: Nanoparticle transport and uptake across excised bovine nasal tissue (Ussing chambers)
Type: in vitro ADME
Protocol: Transport studies were conducted in bovine nasal tissue. Bovine nasal tissue was obtained from freshly slaughtered cattle, and different regions (MTA, MTP, ITP) were prepared as described in Example 13. Nanoparticles coupled to deslorelin or transferring via aldehyde sulfate moieties were prepared as described in Example 3. The nanoparticle size was measured using a Zeta Plus Analyzer (Brookhaven Instruments Limited, UK). Particle size was analyzed before and after ligand conjugation in deionized filtered water.
The tissues were exposed to 5 ml of assay buffer with either peptide conjugated or plain nanoparticles on the donor side (mucosal or serosal surface). Assay buffer (5 ml) without particles was exposed to the receiver side (serosal or mucosal surface). The buffers used were pre-equilibrated to 37° C. or 4° C. […]
Nanoparticle Uptake: At the end of 4 hr in the above transport studies, the tissues exposed (1.78 cm^2) to the nanoparticle suspension were cut and washed thrice using 1 ml of assay buffer at pH 5. […] The homogenates were then centrifuged and the supernatant was analyzed.
Nanoparticle Transport and Uptake: Competition with Free Ligand: Similar to the transport and uptake studies mentioned above, the competition study was carried out using the modified Ussing chambers. […] The supernatants were analyzed to determine nanoparticle uptake. […]

Transferrin-AS: transferrin-aldehyde sulphate-conjugated polystyrene nanoparticles
uptake, times higher than plain nanoparticles: 2.5 times
